Test: soluble on expression in E. coli; label from the status in PepcDB or PDB records

Soluble on expression in E. coli, soluble:
MPVAVMAESAFSFKKLLDQCENQELEAPGGIATPPVYGQLLALYLLHNDMNNARYLWKRIPPAIKSANSELGGIWSVGQRIWQRDFPGIYTTINAHQWSETVQPIMEALRDATRRRAFALVSQAYTSIIADDFAAFVGLPVEEAVKGILEQGWQADSTTRMVLPRKPVAGALDVSFNKFIPLSEPAPVPPIPNEQQLARLTDYVAFLEN
MENDPNLFVALYDFVASGDNTLSITKGEKLRVLGYNHNGEWCEAQTKNGQGWVPSQYITPVNS
MDEDVLTTLKILIIGESGVGKSSLLLRFTDDTFDPELAATIGVDFKVKTISVDGNKAKLAIWDTAGQERFRTLTPSYYRGAQGVILVYDVTRRDTFVKLDNWLNELETYCTRNDIVNMLVGNKIDKENREVDRNEGLKFARKHSMLFIEASAKTCDGVQCAFEELVEKIIQTPGLWESENQNKGVKLSHREEGQGGGACGGYCSVL
MVRSGNKAAVVLCMDVGFTMSNSIPGIESPFEQAKKVITMFVQRQVFAENKDEIALVLFGTDGTDNPLSGGDQYQNITVHRHLMLPDFDLLEDIESKIQPGSQQADFLDALIVSMDVIQHETIGKKFEKRHIEIFTDLSSRFSKSQLDIIIHSLKKCDISLQFFLPFSLGKEDGSGDRGDGPFRLGGHGPSFPLKGITEQQKEGLEIVKMVMISLEGEDGLDEIYSFSESLRKLCVFKKIERHSIHWPCRLTIGSNLSIRIAAYKSILQERVKKTWTVVDAKTLKKEDIQKETVYCLNDDDETEVLKEDIIQGFRYGSDIVPFSKVDEEQMKYKSEGKCFSVLGFCKSSQVQRRFFMGNQVLKVFAARDDEAAAVALSSLIHALDDLDMVAIVRYAYDKRANPQVGVAFPHIKHNYECLVYVQLPFMEDLRQYMFSSLKNSKKYAPTEAQLNAVDALIDSMSLAKKDEKTDTLEDLFPTTKIPNPRFQRLFQCLLHRALHPREPLPPIQQHIWNMLNPPAEVTTKSQIPLSKIKTLFPLIEAKKKDQVTAQEIFQDNHEDGPTAK
MEEQPQMQDADEPADSGGEGRAGGPPQVAGAQAACSEDRMTLLLRLRAQTKQQLLEYKSMVDASEEKTPEQIMQEKQIEAKIEDLENEIEEVKVAFEIKKLALDRMRLSTALKKNLEKISRQSSVLMDNMKHLLELNKLIMKSQQESWDLEEKLLDIRKKRLQLKQASESKLLEIQTEKNKQKIDLDSMENSERIKIIRQNLQMEIKITTVIQHVFQNLILGSKVNWAEDPALKEIVLQLEKNVDMM

— the DeepSol protein solubility set
